The target of this experiment is T1, PAI-1 (Homo sapiens, UniProt P05121).
T1 construct: purchased Stago BNL (Asnières sur Seine, FR)
Description: chromogenic screening assay: rate of tPA inhibition by PAI-1 (spectrozyme tPA hydrolysis). It is filed as biochemical. The settings on record: without vitronectin, mean ± SEM, n = 3. How it is done: Compounds from our local collection BioCIS and from the Prestwick compound library (Prestwick chemicals, Illkirch, FR), a collection containing only FDA approved drugs (around 4000 compounds in total) were tested in a chromogenic assay measuring the inhibition rate of tPA-catalyzed spectrozyme® tPA hydrolysis in the presence of PAI-1. Compounds (20 μL, final concentration 50 μM, 1% DMSO) were dispensed in a 96 well half area Greiner plate. A mixture containing 20 μL of PAI-1 (final concentration 20 nM) and 80 μL of Spectrozyme-tPA (final concentration 400 μM) was then added, and the mixture pre-incubated for 45 minutes at 37 °C. At the end of pre-incubation time, 90 μL of the mixture were added to another 96 well half area plate containing 10 μL tPA (final concentration 10 nM). The kinetic was then measured at 405 nm for 45 min at 37 °C in an Envision microplate reader. Progress curves were fitted using the pseudo first order equation to determine the apparent rate constant k.

Amino acid sequences for entries named in this document (tags omitted). Residues count along the entry.
UniProt P05121, 24-402: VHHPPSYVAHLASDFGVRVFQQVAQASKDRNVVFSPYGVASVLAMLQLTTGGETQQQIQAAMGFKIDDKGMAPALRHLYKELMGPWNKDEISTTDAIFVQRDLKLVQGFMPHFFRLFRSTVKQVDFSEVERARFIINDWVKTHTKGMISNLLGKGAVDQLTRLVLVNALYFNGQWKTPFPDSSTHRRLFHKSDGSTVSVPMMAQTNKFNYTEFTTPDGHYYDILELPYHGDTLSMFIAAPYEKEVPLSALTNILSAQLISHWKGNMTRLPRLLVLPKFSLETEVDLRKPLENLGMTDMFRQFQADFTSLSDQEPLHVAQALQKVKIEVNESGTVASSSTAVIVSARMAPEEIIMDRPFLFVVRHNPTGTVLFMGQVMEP

Experimental findings from publication PMC5120274, “Characterization of the Annonaceous acetogenin, annonacinone, a natural product inhibitor of plasminogen activator inhibitor-1” (Scientific Reports, 2016) are described below.

The compound `O=C(O)C(=O)c1cn(Cc2ccccc2)c2ccc(-c3ccc(OC(F)(F)F)cc3)cc12` [Tiplaxtinin, reference compound] yielded an IC50 of 28 ± 1 µM.

As a reminder, the IC50 is the midpoint of a concentration-inhibition curve.
